# Earlier results as cited in patent EP2669276A1 (Université de Strasbourg, priority 2012, dated 2013).
# System: hyperalgesia induced by administration of opiate analgesics
# Conditions: rat; single administration 0.5 mg/kg, i.p.; WO02/24192; cited from earlier work
substance,measurement,value
N^α-adamantan-1-yl-L-Arg-L-Phe-NH2 acetate,hyperalgesia induced by administration of fentanyl,blocks
